Assay results taken from patent US20200236933A1, “USE OF A NON-IONIC SURFACTANT WHICH IS A POLYOL DERIVATIVE AS A PLANT GROWTH STIMULATING AGENT OR AS AN ADJUVANT” (priority 2017, published 2020).

Tests used:
[1] = 5% sunflower oil in 2.5% solution; 45° C. 24 h and centrifugation 20 min 4000 rpm
[2] = pH modification of the mixture; assay type: physicochemical; settings: 0.5% of the 2.5% sucrose stearate solution added to a solution at pH 9.4
[3] = 3% in water or sunflower oil; centrifuged 5 min at 4000 rpm

With sucrose stearate the “number of phases of the mixture” value [1] was “only one phase”, the pH [2] was 6.33 and the miscibility [3] was “miscible with water and also with oil”.
